From published antibiotic growth screens (doi:10.1038/s41589-023-01349-8)
The other results are listed elsewhere or left out.

system: A. baumannii ATCC 17978; assay: relative growth (fraction of control); higher = less inhibition; conditions: 50 µM

| Compound | relative growth |
| --- | --- |
| CCSc1nc(-c2ccc(C)cc2)cc(C(F)(F)F)c1C#N | 1.01 |
| COc1ncnc(OC)c1C | 1.16 |
| O=C(O)C[C@H]1Oc2ccccc2NC1=O | 1.15 |
| COc1ccc(-c2cnc3c(c2)C(=O)N([C@H](C)CO)C[C@@H](C)[C@H](CN(C)C(=O)Cc2ccncc2)O3)cc1 | 0.989 |
| C[C@@H]1CN([C@H](C)CO)S(=O)(=O)c2ccc(C#CCN(C)C)cc2O[C@@H]1CN(C)C(=O)c1ccccc1F | 1.11 |
| O=C(N[C@@H]1CC[C@H](CCNS(=O)(=O)c2ccc(F)cc2)O[C@@H]1CO)C1CC1 | 0.902 |
| CC(=O)N(C)[C@H]1C(=O)C(=O)c2ccccc2C1=O | 1.04 |
| O=C(O)c1cc(O)c2c(c1)[C@H]([C@H]1c3cc(C(=O)O)cc(O)c3C(=O)c3c(O[C@@H]4O[C@H](CO)[C@@H](O)[C@H](O)[C@H]4O)cccc31)c1cccc(O[C@@H]3O[C@H](CO)[C@@H](O)[C@H](O)[C@H]3O)c1C2=O | 0.922 |
| CN(C)CCC[C@@]1(c2ccc(F)cc2)OCc2cc(C#N)ccc21.O=C(O)C(=O)O | 0.929 |
| CC(=O)Nc1ccc(S(=O)(=O)Nc2onc(C)c2C)cc1 | 1.12 |
| CC(C)CC#Cc1ccc2c(c1)O[C@@H](CN(C)C(=O)C1CCOCC1)[C@@H](C)CN([C@@H](C)CO)S2(=O)=O | 0.922 |
| CC(c1cc2ccccc2s1)N(O)C(N)=O (stereo not drawn) | 1.21 |
| Clc1ccc([C@H]2CC(C3CC3)=NN2c2ccccc2)cc1 | 1.05 |
| Cc1ccc(S(=O)(=O)NCC[C@@H]2CC[C@@H](NS(=O)(=O)c3ccccc3Cl)[C@@H](CO)O2)cc1 | 0.971 |
| O=C(C[C@H]1C[C@H]2c3cc(NS(=O)(=O)c4ccc(F)cc4)ccc3O[C@H]2[C@@H](CO)O1)NCC(F)(F)F | 1.11 |
| Cc1cc(C)n(N)c(=O)c1C(=O)O | 0.869 |
| C[C@@H]1CN([C@H](C)CO)C(=O)CCCn2cc(nn2)CO[C@H]1CN(C)C(=O)Nc1ccc2c(c1)OCCO2 | 1.18 |
| NC(=O)c1ncn([C@@H]2O[C@H](CO)[C@@H](O)[C@H]2O)c1N | 1.03 |
| COc1ccc(C2Sc3ccccc3N(CCN(C)C)C(=O)C2OC(C)=O)cc1.Cl (stereo not drawn) | 1.08 |
| C[C@H]1CN([C@@H](C)CO)S(=O)(=O)c2ccc(/C=C/c3ccccc3)cc2O[C@H]1CN(C)C(=O)CN1CCOCC1 | 0.892 |
| CC1=CC(=O)CC(C)(C)C1(O)/C=C/C(C)=C\C(=O)O (mixture of isomers) [ABSCISIC ACID (cis,trans; +/-)] | 1.09 |
| O=C(C[C@@H]1C=C[C@@H](NC(=O)Nc2ccc3c(c2)OCO3)[C@@H](CO)O1)NCCCN1CCOCC1 | 0.956 |
| CCOC(=O)c1c(C)n[nH]c1N | 1.21 |
| CC[C@@]1(C)CC(=O)NC1=O | 1.04 |
| CC12CC3(C)CC(C)(C1)CC(C/N=C/c1ccc(O)cc1)(C2)C3 | 1.03 |
| O=C(C[C@@H]1C=C[C@@H](NC(=O)c2ccc(F)cc2)[C@H](CO)O1)NCc1ccncn1 | 0.897 |
| NC[C@H]1O[C@H](OC2[C@@H](N)C[C@@H](N)[C@H](O[C@H]3O[C@H](CO)[C@@H](O)[C@H](N)[C@H]3O)[C@H]2O)[C@H](O)[C@@H](O)[C@@H]1O.O=S(=O)(O)O (stereo partly drawn) | 0.338 |

| Compound | relative growth |
| --- | --- |
| COC(=O)c1cnn2c(=O)c3c([nH]c12)CCC3 | 1.07 |
| CCCC(=O)Nc1ccc2c(c1)C(=O)N(C)C[C@H](OC)[C@H](C)CN(Cc1ccc(-c3ccccn3)cc1)[C@H](C)CO2 | 1.02 |
| COc1ccccc1N=C(NO)c1nonc1N | 1.03 |
| CCCNC(=O)Nc1ccc2c(c1)C(=O)N(C)C[C@H](OC)[C@@H](C)CN(C(=O)C1CCOCC1)[C@@H](C)CO2 | 0.951 |
| Cc1cc(C)c2ccc(Cl)nc2n1 | 1.01 |
| S=C=Nc1ccc(N=C=S)cc1 | 0.858 |
| O=C(O)COc1nn(Cc2ccccc2)c2ccccc12 | 0.937 |
| COCC(=O)Nc1ccc2c(c1)C(=O)N(C)C[C@H](OC)[C@H](C)CN(Cc1ccccc1F)[C@@H](C)CO2 | 1.17 |
| N=C(N)NCCN1CCCCCCC1.O=S(=O)(O)O | 1.07 |
| CCC(C)C(N)C1=NC(C(=O)NC(CC(C)C)C(=O)NC(CCC(=O)O)C(=O)NC(C(=O)NCCCCC2NC(=O)C(CC(N)=O)NC(=O)C(CC(=O)O)NC(=O)C(Cc3c[nH]cn3)NC(=O)C(Cc3ccccc3)NC(=O)C(C(C)CC)NC(=O)C(CCCN)NC2=O)C(C)CC)CS1 (stereo not drawn) | 0.986 |
| CCCC#Cc1ccc2c(c1)O[C@H](CN(C)Cc1ccc3c(c1)OCO3)[C@H](C)CN([C@H](C)CO)S2(=O)=O | 0.894 |
| COCC#Cc1cnc2c(c1)C(=O)N([C@@H](C)CO)C[C@H](C)[C@@H](CN(C)C(=O)Nc1ccccc1OC)O2 | 1.1 |
| CNc1nc(SCC(N)=O)nc(N2CCOCC2)n1 | 1.01 |
| Cc1cc(C)c(NC(=O)[C@@H](N)Cc2ccccc2)c(Cl)c1 | 1.09 |
| C#Cc1ccc(C(=O)NO)s1 | 0.871 |
| COc1cc(C(=O)N2CCOCC2)cc(OC)c1OC | 1.26 |
| C#C[C@]1(O)CCC2[C@@H]3CCC4=CCCC[C@@H]4C3C(=C)C[C@@]21CC (stereo partly drawn) | 1.02 |
| COCCOC(=O)N1C(=O)[C@@]2(c3cc(C#CC4(O)CCCCCC4)ccc31)[C@H](c1ccccc1OCCO)N1[C@H](c3ccccc3)[C@H](c3ccccc3)OC(=O)[C@H]1[C@@H]2C(=O)N1CCc2cc(OC)c(OC)cc2C1 | 1.02 |
| Cc1cc(C(=O)O)c(C#N)c(N)n1 | 1 |
| CC(C)(C)c1cc(C(=O)NN)no1 | 1.22 |
| O=C(C[C@@H]1CC[C@H]2[C@@H](COC[C@@H](O)CN2C(=O)Nc2ccc(F)cc2)O1)NCCCN1CCOCC1 | 1.01 |
| COc1cc(O)c(C(C)=O)c(OC)c1 | 1.13 |
| C#CCN(C)CCCOc1ccc(Cl)cc1Cl.Cl | 0.858 |
| Cc1ccc(S(=O)(=O)N2C[C@@H](O)COC[C@H]3O[C@H](CC(=O)N[C@H]4CCN(Cc5ccccc5)C4)CC[C@@H]32)cc1 | 1.06 |
| COc1cccc(S(=O)(=O)N(C)C[C@@H]2Oc3cc(C#CCN(C)C)ccc3S(=O)(=O)N([C@H](C)CO)C[C@@H]2C)c1 | 1.06 |
| COC(=O)C(CC#Cc1ccc2c(c1)[C@]1(C(=O)N2)[C@H](C(=O)N2CCc3cc(OC)c(OC)cc3C2)[C@H]2C(=O)O[C@H](c3ccccc3)[C@H](c3ccccc3)N2[C@@H]1c1ccc(O)cc1)C(=O)OC | 0.827 |
